The record followed here is ChEMBL document CHEMBL5223132, “Structure-activity relationships of mixed σ1R/σ2R ligands with antiproliferative and anticancer effects” (Bioorg Med Chem, 2022).

By UniProt entry, the sequences of proteins in these tests, tags left out.
UniProt Q5BJF2, whole entry: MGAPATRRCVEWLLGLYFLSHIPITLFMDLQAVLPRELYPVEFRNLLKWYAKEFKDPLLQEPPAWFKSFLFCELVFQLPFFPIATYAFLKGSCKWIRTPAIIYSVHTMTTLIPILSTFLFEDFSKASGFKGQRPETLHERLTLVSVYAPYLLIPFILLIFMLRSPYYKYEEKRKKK
UniProt Q99720, whole entry: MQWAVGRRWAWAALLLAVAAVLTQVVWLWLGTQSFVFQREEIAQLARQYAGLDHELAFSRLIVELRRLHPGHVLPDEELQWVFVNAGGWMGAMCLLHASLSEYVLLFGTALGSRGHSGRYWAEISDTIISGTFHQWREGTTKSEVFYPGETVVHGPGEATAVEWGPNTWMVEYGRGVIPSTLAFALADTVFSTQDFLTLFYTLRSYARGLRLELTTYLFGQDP

As usually defined, the Ki is the dissociation constant of the complex between target and ligand, obtained from inhibition or displacement. Higher therefore signals a looser hold on the target.

Assay [1] deals with Sigma intracellular receptor 2 (Homo sapiens, UniProt Q5BJF2). The assay is described as follows: Displacement of [H3]DTG from sigma 2 receptor (unknown origin) by competition binding assay.
Assay [2] concerns the target Sigma non-opioid intracellular receptor 1 (Homo sapiens, UniProt Q99720). The assay is described as follows: Displacement of [H3]DTG from sigma 1 receptor (unknown origin) by competition binding assay.

With `COc1cccc2c1CCCC2CCCN1CCN(C2CCCCC2)CC1` (configuration not stated), in assay [1], the Ki was determined as 0.68 nM. In other words, the sub-nanomolar range.

Turning to `Fc1ccc(-n2cc(CCCCN3CCC4(CC3)OCc3ccccc34)c3ccccc32)cc1` [SIRAMESINE], the Ki in assay [2] is 10.5 nM.
